Patent publication US12331032B2, “Quinone reductase 2 inhibitor compounds and uses thereof” (DUKE UNIVERSITY, priority 2018, dated 2025)

Chains of the proteins cited; added tags and fusions are not shown.
UniProt P16083, whole entry: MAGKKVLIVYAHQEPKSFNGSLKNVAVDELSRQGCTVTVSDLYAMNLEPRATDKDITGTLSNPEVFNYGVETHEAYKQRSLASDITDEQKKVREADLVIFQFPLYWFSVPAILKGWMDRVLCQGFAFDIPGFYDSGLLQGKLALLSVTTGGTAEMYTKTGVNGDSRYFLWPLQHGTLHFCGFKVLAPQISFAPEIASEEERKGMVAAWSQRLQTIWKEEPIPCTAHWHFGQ

Target: quinone reductase 2 (QR2) (Homo sapiens, UniProt P16083)
Assay: QR2 inhibition, comparative IC50 data
Type: biochemical
Details: QR2 inhibitors

SMILES: CNc1ccnc2cc(Cl)ccc12
- IC50: 7.23 µM
